Experimental data taken from patent publication US20110009379A1, “INDOLINONE COMPOUND” (ASTELLAS PHARMA INC., priority 2008, published 2011).

Test system: RIN14B cells
Assay: Measurement of 5-HT secretion from RIN14B
Conditions: 20 minutes at 37° C., relative to 300 μM allyl isothiocyanate = 100%, HBSS only = 0%
Description: In order to investigate whether TRPA1 is related to 5-HT release, 5-HT secretion promotion from RIN14B by a compound to be tested was measured.
The RIN14B cells cultivated in a petri dish were scraped using Phosphate buffered saline (PBS) containing 1 mM EDTA, distributed into 24 well plates, and cultivated for 2 days. As a medium, a medium in which 10% fetal bovine serum (ICN), 100 U/mL penicillin, and 100 μg/mL streptomycin was added to RPMI1640 (Invitrogen), was used. The cells were washed once with HBSS (Invitrogen) and added with 0.1% BSA and 10 μM fluoxetine (TOCRIS Co.), followed by dilution with the above HBSS, the prepared compound to be tested was added to RIN14B cells, followed by cultivation at 37° C., under 5% CO2 condition for 20 minutes. After cultivation, supernatant of cells was recovered, followed by freeze preservation. The content of 5-HT in the supernatant was measured by a commercial serotonin immunoassay kit (Beckman). 5-HT release promotion activation value (%) was evaluated as a relative value when the 5-HT release promotion value by 300 μM of allyl isothiocyanate was defined as 100%, and the 5-HT release promotion value by HBSS for dilution only was defined as 0%.

SMILES: O=C1C(=Cc2nccs2)c2ccccc2N1Cc1ccccc1 (single isomer, unassigned)
- 5-HT release promotion activation value: 41.2%
